Here are results for ten compounds from patent US9540377B2, “2,6,7,8 substituted purines as HDM2 inhibitors” (Merck Sharp & Dohme Corp., priority 2013, dated 2017).

The chains behind the UniProt entries cited, without tags or fusion partners. Residues count along the entry.
UniProt Q00987, 17-125: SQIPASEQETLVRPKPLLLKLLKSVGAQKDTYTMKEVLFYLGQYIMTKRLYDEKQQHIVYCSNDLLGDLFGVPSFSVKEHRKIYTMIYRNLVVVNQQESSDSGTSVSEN

For one assay, the target named is HDM2 (truncated, residues 17 to 125, containing p53 binding surface) (Homo sapiens (Human), UniProt Q00987). Description: HDM2 FRET assay (inhibition of binding of FITC labeled p53-site peptide to HDM2). The conditions noted are these: Table 14. The text has this: (containing p53 binding surface, Science (1994) 265, 346-355), with N-terminal His and Thioredoxin tag was generated in pET32a expression vector and expressed in E. coli strain BL21(DE3)Rosetta. […] IC50 DETERMINATIONS: Dose-response curves were plotted from the inhibition data, from 10 point serial dilutions of inhibitory compounds. Concentration of compound was plotted against em520/Cem495 ratio signal. To generate IC50 values, the dose-response curves were fitted to a standard sigmoidal curve and IC50 values were derived by nonlinear regression analysis.
The term IC50 denotes the midpoint of a concentration-inhibition curve. In the case of `C[C@@H](Nc1nc([S+]([O-])CC(F)(F)F)nc2nc(N3CCOC[C@H]3c3ccccc3)n(C[C@H]3CC[C@H](C)CC3)c12)C1CCC1` (single isomer, unassigned) [Example 14.16], the IC50 was 17.4 nM. On the same count and under the same terms, under `C[C@@H](Nc1nc([S+]([O-])CC(F)(F)F)nc2nc(N3CCOC[C@H]3c3ccccc3)n(C[C@H]3CC[C@H](C)CC3)c12)C1CCC1` (single isomer, unassigned) [Example 14.17] stands 321 nM.

The assay is the same for the next values; noted with them: Table 16.
`C[C@@H]1[C@@H](C)OCCN1c1nc2nc(-c3noc(=O)[nH]3)nc(-c3cccc(Cl)c3)c2n1C[C@H]1CC[C@H](C)CC1` (racemic) [Example 16.102, 3-{6-(3-chlorophenyl)-8-[(trans)-2,3-dimethylmorpholin-4-yl]-7-[(trans-4-methylcyclohexyl)methyl]-7H-purin-2-yl}-1,2,4-oxadiazol-5(4H)-one]: the IC50 came to 7.8 nM. This lies in the single-digit nanomolar range. The same measure, in the same setting: the value for `COC(C)(C)C1CCCN1c1nc2nc(-c3noc(=O)[nH]3)nc(-c3cccc(Cl)c3)c2n1C[C@H]1CC[C@H](C)CC1` (single isomer, unassigned) [Example 16.65, 3-{6-(3-chlorophenyl)-8-[2-(1-methoxy-1-methylethyl)pyrrolidin-1-yl]-7-[(trans-4-methylcyclohexyl)methyl]-7H-purin-2-yl}-1,2,4-oxadiazol-5(4H)-one] was 0.658 nM.

Still in this assay, the particulars now being: Table 23.
Take `CC(F)(c1ccccc1F)c1nc2nc(C(=O)O)nc(-c3cncc(Cl)c3)c2n1C[C@H]1CC[C@H](C)CC1` (single isomer, unassigned) [Example 23.67, 6-(5-chloropyridin-3-yl)-8-[1-fluoro-1-(2-fluorophenyl)ethyl]-7-[(trans-4-methylcyclohexyl)methyl]-7H-purine-2-carboxylic acid]: the IC50 came to 0.176 nM. Same read-out and setting: the value for `C[C@H]1CC[C@H](Cn2c(C(O)c3ccccc3)nc3nc(-c4noc(=O)[nH]4)nc(-c4cccc(Cl)c4)c32)CC1` (single isomer, unassigned) [Example 23.42, 3-{6-(3-chlorophenyl)-8-[hydroxy(phenyl)methyl]-7-[(trans-4-methylcyclohexyl)methyl]-7H-purin-2-yl}-1,2,4-oxadiazol-5(4H)-one] was 6.89 nM; that for `CC(O)(c1nc2nc(-c3n[nH]c(=O)o3)nc(-c3cccc(Cl)c3)c2n1C[C@H]1CC[C@H](C)CC1)C1CCOCC1` (mixture of isomers) [Example 23.13, 5-{6-(3-chlorophenyl)-8-[1-hydroxy-1-(tetrahydro-2H-pyran-4-yl)ethyl]-7-[(trans-4-methylcyclohexyl)methyl]-7H-purin-2-yl}-1,3,4-oxadiazol-2(3H)-one] was 22.7 nM.

In turn, `COC(C)(c1ccccc1C#N)c1nc2nc(-c3noc(=O)[nH]3)nc(-c3cncc(Cl)c3)c2n1C[C@H]1CC[C@H](C)CC1` (single isomer, unassigned) [Example 23.112, 2-{1-[6-(5-chloropyridin-3-yl)-7-[(trans-4-methylcyclohexyl)methyl]-2-(5-oxo-4,5-dihydro-1,2,4-oxadiazol-3-yl)-7H-purin-8-yl]-1-methoxyethyl}benzonitrile] showed an IC50 of 2.77 nM. Still for that read-out and setting: under `CC(F)(c1cccc(Cl)c1F)c1nc2nc(-c3n[nH]c(=O)o3)nc(-c3cncc(Cl)c3)c2n1C[C@H]1CC[C@H](C)CC1` (single isomer, unassigned) [Example 23.59, 5-{8-[1-(3-chloro-2-fluorophenyl)-1-fluoroethyl]-6-(5-chloropyridin-3-yl)-7-[(trans-4-methylcyclohexyl)methyl]-7H-purin-2-yl}-1,3,4-oxadiazol-2(3H)-one] stands 0.896 nM; under `CC(F)(c1cccc(Cl)c1F)c1nc2nc(-c3n[nH]c(=O)o3)nc(-c3cncc(Cl)c3)c2n1C[C@H]1CC[C@H](C)CC1` (single isomer, unassigned) [Example 23.60, 5-{8-[1-(3-chloro-2-fluorophenyl)-1-fluoroethyl]-6-(5-chloropyridin-3-yl)-7-[(trans-4-methylcyclohexyl)methyl]-7H-purin-2-yl}-1,3,4-oxadiazol-2(3H)-one], 29 nM.
